Laboratory results from patent EP3262036B1, “THERAPEUTIC PYRIDAZINE COMPOUNDS AND USES THEREOF” (priority 2015, dated 2016).

Sequences of proteins named here, by UniProt entry; tags and fusion partners are left off. Residues count along the entry.
UniProt P51531, 1377-1486 isoform P51531-2: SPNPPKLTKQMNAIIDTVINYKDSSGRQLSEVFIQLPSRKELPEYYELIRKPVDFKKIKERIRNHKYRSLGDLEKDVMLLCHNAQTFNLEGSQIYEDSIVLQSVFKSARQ
UniProt Q86U86, 645-766: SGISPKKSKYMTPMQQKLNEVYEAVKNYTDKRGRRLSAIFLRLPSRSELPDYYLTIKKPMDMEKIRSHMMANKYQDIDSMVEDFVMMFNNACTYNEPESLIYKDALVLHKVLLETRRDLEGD

Tests used:
[1] = target: BRM (Isoform 2) Bromodomain (Homo sapiens, UniProt P51531); assay: biochemical
Source text: IC50 measurements for inhibitors using BRM SM TR-FRET Binding Assay

[2] = target: Polybromodomain-1 BromoDomain-5 (PB1-BD5) (Homo sapiens, UniProt Q86U86); assay: biochemical
Source text: IC50 measurements for inhibitors using Polybromodomain-1 BromoDomain-5 (PB1-BD5) SM TR-FRET Binding Assay

SMILES | IC50 [1] | IC50 [2]
Nc1nnc(-c2ccccc2O)cc1C1CCCCC1 [Example 209, 2-(6-amino-5-cyclohexylpyridazin-3-yl)phenol] | 8.8 nM | 5.2 nM
CC1CN(c2cc(-c3ccccc3O)nnc2N)CCN1S(C)(=O)=O (stereo not shown) [Example 108, 2-(6-amino-5-(3-methyl-4-(methylsulfonyl)piperazin-1-yl)pyridazin-3-yl)phenol] | 35.8 nM | 15.9 nM
